PubChem BioAssay AID2435 (The Scripps Research Institute Molecular Screening Center, 2010)
Only a part is listed here, and it is no random draw. The source made the active and inactive calls.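 Rule for the calls: active = activation above the mean of all tested compounds plus 3 SD, cutoff set per screening run (cut at about 20% in these data); inactive = the rest.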

Protein sequences, listed by entry. Tags and fused reporters are not part of them.
UniProt P30559, whole entry: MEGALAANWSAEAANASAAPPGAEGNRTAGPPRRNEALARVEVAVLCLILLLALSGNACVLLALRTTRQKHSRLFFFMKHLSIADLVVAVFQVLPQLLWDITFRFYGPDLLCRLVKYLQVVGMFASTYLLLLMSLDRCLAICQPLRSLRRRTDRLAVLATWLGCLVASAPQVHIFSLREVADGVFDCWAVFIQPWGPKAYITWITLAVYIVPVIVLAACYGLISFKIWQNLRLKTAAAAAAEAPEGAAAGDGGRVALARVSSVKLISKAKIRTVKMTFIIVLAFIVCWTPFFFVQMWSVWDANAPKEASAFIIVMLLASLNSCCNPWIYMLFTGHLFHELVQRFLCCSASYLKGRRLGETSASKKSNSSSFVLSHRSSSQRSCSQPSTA

molecular target: Oxytocin receptor (Homo sapiens) (UniProt P30559); assay: human OXTR agonists, primary screen, fluorescence, CHO-OTR cells, Fluo-8 calcium (AID 2435); conditions: Fluo-8 calcium fluorescence, at 3 µM, active compounds read high, normalized: DMSO 0%, oxytocin 100%;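 note: peak over basal fluorescence ratio from a 100 s FLIPR kinetic read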

| Compound | activation |
| --- | --- |
| O=C(NCC1(N2CCCCC2)CCCCC1)c1ccc(OC(F)F)cc1 | inactive: 0.54% |
| CCN1CCC(Nc2ccc(Cl)cc2)CC1 | inactive: 1.2% |
| N#CC1(Nc2ccccc2)CCN(CCc2ccccc2)CC1 | inactive: 0.48% |
| O=C(NCC1(N2CCCCC2)CCCCC1)c1cccc([N+](=O)[O-])c1 | inactive: -0.02% |
| O=C(NCC1(N2CCCCC2)CCCCC1)c1cccc(C(F)(F)F)c1 | inactive: 1.09% |
| COc1cc(C(=O)NCC2(N3CCCCC3)CCCCC2)ccc1OC(F)F | inactive: 0.7% |
| O=C(NCC1(N2CCOCC2)CCCCC1)c1cc(=O)[nH]c2ccccc12 | inactive: 0.01% |
| CN1CCN(CCOC(=O)C(O)(c2ccccc2)c2ccccc2)CC1 | inactive: -0.94% |
| COc1ccc(NC2CCN(C(=O)OC(C)(C)C)CC2)cc1 | inactive: 0.17% |
| CC(C)c1ccc(NC2CCN(C(=O)OC(C)(C)C)CC2)cc1 | inactive: -0.74% |
| COc1ccc(CN(CCCl)CCCl)cc1Cl | inactive: 1.19% |
| CN(C)c1cccc(C(=O)NCC2(N3CCCCC3)CCCCC2)c1 | inactive: 0.33% |
| COc1cc(OC)c(C(=O)NCC2(N(C)C)CCCCC2)cc1OC | inactive: 1.86% |
| O=C(NCC1(N2CCOCC2)CCCCC1)c1cc(F)c(F)cc1Cl | inactive: -1.78% |
| CN1CCC(Nc2cccc(F)c2)CC1 | inactive: 0.42% |
| O=C(NCC1(N2CCCCC2)CCCCC1)c1cncc(Br)c1 | inactive: -0.14% |
| COc1ccc(C(=O)NCC2(N3CCCCC3)CCCCC2)cc1 | inactive: 1.22% |
| CC(C)(C)OC(=O)N1CCC(N(C(=O)c2ccccc2)c2ccc(F)cc2)CC1 | inactive: -1.06% |
| COc1ccc(C(=O)NCC2(N3CCCCC3)CCCCC2)c(OC)c1OC | inactive: -0.11% |
| O=C(NCC1(N2CCCCC2)CCCCC1)c1ccc(=O)[nH]c1 | inactive: 0.12% |
| O=C(NCC1(N2CCCCC2)CCCCC1)c1cccs1 | inactive: 0.12% |

| Compound | activation |
| --- | --- |
| CSc1ccccc1C(=O)NCC1(N2CCCCC2)CCCCC1 | inactive: -0.3% |
| O=C(NCC1(N2CCCCC2)CCCCC1)c1ccc(Cl)nc1 | inactive: -1.07% |
| Cc1cc(C)cc(N(C(=O)c2ccccc2)C2CCN(C(=O)OC(C)(C)C)CC2)c1 | inactive: -2.36% |
| O=C(NCC1(N2CCOCC2)CCCCC1)c1cc2ccccc2o1 | inactive: -0.62% |
| O=C(NCC1(N2CCCCC2)CCCCC1)c1ccc(Cl)s1 | inactive: 1.13% |
| N#CC1(Nc2ccccc2)CCN(Cc2ccccc2)CC1 | inactive: 1.05% |
| O=C(OC1CN2CCC1CC2)C1c2ccccc2Oc2ccccc21 (stereo not drawn) | inactive: 0.29% |
| COc1ccc(Cl)cc1C(=O)NCC1(N2CCOCC2)CCCCC1 | inactive: -2.01% |
| CCOC(=O)N1CCC(Nc2ccc(OC)cc2)CC1 | inactive: -0.52% |
| CCOc1ccc(C)cc1CN(CCCl)CCCl | inactive: -1.1% |
| O=C(NCC1(N2CCCCC2)CCCCC1)c1ccc(F)cc1 | inactive: -1.22% |
| COc1ccc(NC2CCN(CCc3ccccc3)CC2)c(OC)c1 | inactive: 0.8% |
| CCOC(=O)N1CCC(Nc2cccc(C)c2)CC1 | inactive: -1.1% |
| Cc1ccc(OCC(C)C)c(CN(CCCl)CCCl)c1 | inactive: -1.46% |
| COc1cc(OC)cc(C(=O)NCC2(N3CCCCC3)CCCCC2)c1 | inactive: -0.42% |
| Cc1ccc(C(=O)NCC2(N3CCCCC3)CCCCC2)o1 | inactive: -0.72% |
| Fc1ccccc1NC1CCN(Cc2ccccc2)CC1 | inactive: -1.05% |
| CCN1CCC(Nc2cccc(F)c2)CC1 | inactive: -0.41% |
| O=C(NCC1(N2CCCCC2)CCCCC1)c1ccco1 | inactive: -0.78% |
| CN(C)c1ccc(C(=O)NCC2(N3CCCCC3)CCCCC2)cc1 | inactive: 1.02% |
| CCOc1ncccc1C(=O)NCC1(N2CCOCC2)CCCCC1 | inactive: -1.62% |

| Compound | activation |
| --- | --- |
| CN1CCC(Nc2ccc(F)c(Cl)c2)CC1 | inactive: 0.33% |
| CC(C)(C)OC(=O)N1CCC(Nc2ccccc2)CC1 | inactive: -0.36% |
| O=C(O)C1(Nc2ccccc2)CCN(Cc2ccccc2)CC1 | inactive: -0.21% |
| CCCOc1ccc(C(=O)NCC2(N(C)C)CCCCC2)cc1 | inactive: 0.15% |
| COc1cc(OC)cc(C(=O)NCC2(N3CCOCC3)CCCCC2)c1 | inactive: 0.21% |
| COc1cccc(C(=O)N(c2cc(C)cc(C)c2)C2CCN(C(=O)OC(C)(C)C)CC2)c1 | inactive: -2.33% |
| CCC(CO)(C(=O)OC1CN2CCC1CC2)c1ccccc1 (stereo not drawn) | inactive: 0.74% |
| CN1CCC(Nc2ccc(Cl)cc2)CC1 | inactive: 0.54% |
| CCCOc1ccc(C)cc1CN(CCCl)CCCl | inactive: -2.01% |
| COc1cc(C(=O)NCC2(N3CCOCC3)CCCCC2)cc(OC)c1C | inactive: -1.53% |
| O=C(NCC1(N2CCOCC2)CCCCC1)c1cc(Br)ccc1Cl | inactive: -2.33% |
| COc1ccc(C(=O)NCC2(N3CCOCC3)CCCCC2)cc1OC | inactive: -0.15% |
| CCOC(=O)N1CCC(Nc2ccc(C)cc2)CC1 | inactive: -2.07% |
| N/C(=N\O)c1c(N)no[n+]1[O-] | inactive: -0.79% |
| CCc1cc(C(=O)NCC2(N3CCCCC3)CCCCC2)sc1C | inactive: -1.01% |
| O=C(OC1CN2CCC1CC2)C1c2ccccc2C=Cc2ccccc21 (stereo not drawn) | inactive: 5.2% |
| N#Cc1ccc(C(=O)NCC2(N3CCCCC3)CCCCC2)cc1 | inactive: -0.55% |
| CC(C)(C)OC(=O)N1CCC(N(C(=O)c2ccccc2)c2ccc(Cl)cc2)CC1 | inactive: -1.76% |
| CN(C)C1(CNC(=O)c2cccc(C#N)c2)CCCCC1 | inactive: 0.22% |
| c1ccc(CN2CCC(Nc3ccccc3)CC2)cc1 | inactive: -0.19% |
| CCCN1CCC(Nc2cc(OC)cc(OC)c2)CC1 | inactive: -0.3% |
